# Test results as given in patent publication US9925200B2, “Stable formulations of testosterone undecanoate” (Merck Sharp & Dohme B.V., priority 2014, dated 2018).
# Experiment: Solubility of testosterone undecanoate in excipients and SNEDDS mixtures
# Settings: testosterone undecanoate dissolved to saturation in the listed excipient or mixture; stirred overnight at room temperature (solid fats 40° C.); HPLC
substance,measurement,value
sorbitan oleate [SPAN 80],Solubility,130.4 mg/mL
